Bioassay records as filed in PubChem.
AF4-AF9 inh: blocks AF4 peptide binding to human AF9. actives 0.47% (n = 350,000). inhibition, % at 10 µM. AID 651704. AlphaScreen, biotin-AF4 peptide binding to FLAG-AF9;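 active means every replicate reaching a set inhibition limit, whatever the replicate mean, cut at about 25% in these data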;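 further: 0% = plate neutral control median and 100% = total signal loss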
E-selectin induc: E-selectin induction on HUVECs. HUVEC E-selectin immunofluorescence imaging; normalized: neutral wells 0, TNF-alpha wells 100. activation, % at 7.58 µM. actives 0.37% (n = 260,000);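 active means mean E-selectin-positive cell signal at least 10% of the positive control, reached in at least 60% of replicates, without over 20% cell loss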
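material = human umbilical vein endothelial cells (HUVEC), E-selectin induction | quantity = 3,000 cells/well | medium = EGM-2 growth medium on 0.1% gelatin-coated wells | technique = immunofluorescence imaging | read-out basis = % PE-positive cells | control set = TNF-alpha positive control, DMSO neutral control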
RAD52 anneal inh: blocks human RAD52 DNA annealing; P43351; recombinant RAD52 DNA annealing, FRET fluorescence; inhibition, % at 18.7 µM; AID 651710; actives 0.46% (n = 360,000);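 active means every replicate showing at least 50% inhibition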
RAD54 branch: inhibitors of human RAD54 branch migration. RAD54 Holliday junction branch migration, FAM/BHQ fluorescence. inhibition, % at 10.4 µM. actives 0.14% (n = 360,000);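 active means mean normalized replicate activity at least 40 and at least half of replicates scoring 40 or more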;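 further: 0% = median of neutral control wells and 100% = median of positive control wells; inhibitors cause a drop in the FAM fluorescence signal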
Yeast UUG start: modulators of yeast start codon fidelity, primary screen, whole organism, S. cerevisiae, single point, plate reader | AID 602363, 2012 | actives 0.13% (n = 350,000) | activity score, % at 18.7 µM | S. cerevisiae UUG-firefly luciferase reporter, luminescence/redox ratio;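 active means replicate mean at a twofold rise or more, about +100% in these data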;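 further: firefly luciferase made from a UUG start codon reports start codon fidelity; reporter light over untreated wells divided by growth signal over untreated wells; some hits fall short of that in this replicate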
SIRT5 inh: sirtuin-5 (human) deacylase inhibition; Q9NXA8; Purified SirT5, succinyl-peptide AMC, trypsin-coupled fluorescence; inhibition, % at 15 µM; actives 1.1% (n = 330,000); AID 652115; in the data active means inhibition above about 15%
Starred values were filed as active, the others as inactive; . = no result. The list is not random: actives were taken first. Their share in the collection is about 1.8%.

SMILES	AF4-AF9 inh	E-selectin induc	RAD52 anneal inh	RAD54 branch	Yeast UUG start	SIRT5 inh
COc1ccc(CN(CCN2CCOCC2)C(=O)c2c(F)cccc2F)cc1OC	-50	.	-10	-2	-13	17*
COc1ccc(CN(CCCN2CCOCC2)C(=O)Nc2ccccc2)cc1OC	.	.	.	7	-1	.
CCN(CC(=O)Nc1c(F)cccc1F)C(=O)c1ccc2c(c1)NC(=O)C(C)S2 (stereo not given)	-1	.	0	1	-15	27*
C/[N+]([O-])=C\CC(=O)c1ccc(-c2ccccc2)cc1	-1	0	-27	.	.	-3
CO/N=C/CC(=O)c1ccc(-c2ccccc2)cc1	0	.	-21	.	.	29*
CC(=O)Nc1ccc(NC(=O)CSCc2ccccc2Cl)cc1	-1	1	-21	5	-14	-5
C/C(=N\NC(=O)CSCc1ccccc1Cl)c1cc(O)ccc1O	25*	-3	-9	.	.	-2
CCCCCCN1C[C@@H](n2cc(C3CC3)nn2)[C@H](O)C[C@@H]1c1ccc(OC)cc1	1	0	-19	2	0	23*
CCCCCCN1C[C@@H](O)[C@H](n2cc(C3CC3)nn2)C[C@@H]1c1ccc(OC)cc1	0	.	-13	-3	-5	2
Cc1noc(C)c1NC(=O)N[C@H]1CC[C@@H](CC(=O)N2CCCCC2)O[C@@H]1CO	2	0	7	-1	-6	0
Cc1ccn2c(=O)nc(SCC(=O)OCc3ccccc3)nc2c1	-19	.	-66	4	-11	-2
CCOC(=O)CSc1nc(=O)n2ccc(C)cc2n1	-3	1	-17	.	.	31*
COc1cccc(S(=O)(=O)Nc2ccc3c(c2)[C@@H]2C[C@@H](CC(=O)N(C)C)O[C@H](CO)[C@@H]2O3)c1	1	0	-2	1	12	-2
O=C(COc1ccc(S(=O)(=O)N2CCOCC2)cc1Cl)N1CCCC1	42*	0	-10	11	-5	0
COc1ccc2c3c(n(C)c2c1)[C@@H](CO)N(C(=O)Nc1ccc(F)cc1)CC31CCN(C(=O)CN2CCOCC2)CC1	-2	-1	11	.	.	-8
O=C(O)c1cc(N2C(=O)C3CCCCC3C2=O)ccc1NCc1cccnc1 (stereo not given)	-2	11	6	.	.	21*
CCOc1cc(C=NN2CCCCCC2)ccc1O	17	0	-15	0	1	31*
COc1ccc(NC(=O)Nc2ccc3c(c2)[C@H]2C[C@H](CC(=O)O)O[C@@H](CO)[C@H]2O3)cc1	-1	0	-2	-7	.	-2
NS(=O)(=O)c1ccc(NC(=O)Nc2ccccc2)cc1	1	1	-19	.	.	-1
NS(=O)(=O)c1ccc(NC(=O)Nc2ccc(S(N)(=O)=O)cc2)cc1	-1	.	-18	-3	-11	15*
C/C(=N\NC(=O)c1cc2ccccc2cc1O)c1ccc(C)o1	-2	-1	-15	-1	-15	0
C/C(=N\NC(=O)c1c[nH]c2ccccc12)c1ccc(C)o1	.	.	.	58*	-22	.
O=C(C[C@H]1CC[C@H]2[C@@H](COC[C@@H](O)CN2S(=O)(=O)c2cccc(Cl)c2)O1)Nc1ccc(-c2ccccc2)cc1	-3	0	2	8	.	19*
CS(=O)(=O)N1C[C@@H](O)COC[C@@H]2O[C@H](CC(=O)NCc3ccc(-c4ccccc4)cc3)CC[C@H]21	16	0	36	-24	.	-3
COC(=O)C[C@H]1CC[C@@H]2[C@H](COC[C@@H](O)CN2S(=O)(=O)c2ccccc2OC)O1	.	0	.	6	.	.
CS(=O)(=O)N1C[C@H](O)COC[C@@H]2O[C@@H](CC(=O)NCc3ccc(-c4ccccc4)cc3)CC[C@H]21	16	0	78*	7	.	.
COC(=O)C[C@H]1CC[C@H]2[C@@H](COC[C@H](O)CN2S(=O)(=O)c2ccccc2OC)O1	-1	0	1	-13	1	17*
O=C(C[C@@H]1CC[C@H]2[C@@H](COC[C@H](O)CN2S(=O)(=O)c2ccccc2)O1)NCc1ccc(-c2ccccc2)cc1	14	0	80*	-7	.	-2
O=C(C[C@@H]1CC[C@@H]2[C@H](COC[C@H](O)CN2C(=O)c2cccnc2)O1)NCc1ccc(Cl)cc1	0	0	11	3	18	10
C[C@H](CO)N1C[C@H](C)[C@@H](CN(C)S(C)(=O)=O)OCCCC[C@H](C)Oc2ccc(N(C)C)cc2C1=O	.	0	.	.	.	.
COc1ccccc1CNC(=O)C[C@H]1C[C@@H]2c3cc(NC(=O)NC4CCCC4)ccc3O[C@@H]2[C@@H](CO)O1	0	0	3	0	-7	6
COc1ccc(NC(=O)N2CCCCN3[C@@H](CO)[C@@H](c4ccc(C#Cc5ccccc5)cc4)[C@@H]3C2)cc1	21	.	97*	5	-8	4
COc1ccc(NC(=O)N2CCCCN3[C@H](CO)[C@@H](c4ccc(C#Cc5ccccc5)cc4)[C@H]3C2)cc1	3	.	70*	-1	12	7
COc1ccc(NC(=O)N2CCCCN3[C@H](CO)[C@H](c4ccc(C#Cc5ccccc5)cc4)[C@@H]3C2)cc1	-5	.	31	7	11	11
COc1ccc(NC(=O)N2CCCCN3[C@H](CO)[C@@H](c4ccc(C#Cc5ccccc5)cc4)[C@@H]3C2)cc1	-7	.	71*	4	-4	15
CNC[C@H]1OCCCC[C@H](C)Oc2ccc(NC(=O)NC(C)C)cc2C(=O)N([C@H](C)CO)C[C@@H]1C	-3	0	-109	7	.	1
Cc1ccc(NS(=O)(=O)c2cccc(C(=O)N3CCCC(C)C3)c2)cc1 (stereo not given)	-8	.	-8	6	13	-1
COc1ccc(NS(=O)(=O)c2cccc(C(=O)N3CCCC(C)C3)c2)cc1 (stereo not given)	-18	.	-1	10	2	19*
COc1ccc(NS(=O)(=O)c2ccc3c(c2)CCCN3C(C)=O)cc1	-24	121*	-1	-12	-9	-5
COc1ccc(N2CCN(CCCNC(=S)Nc3c(C)cccc3C)CC2)cc1	43*	0	-7	9	-29	-10

Four compounds from above, sorted by SMILES length, ascending:
SMILES	AF4-AF9 inh	E-selectin induc	RAD52 anneal inh	RAD54 branch	Yeast UUG start	SIRT5 inh
Cc1ccc(NS(=O)(=O)c2cccc(C(=O)N3CCCC(C)C3)c2)cc1 (stereo not given)	-8	.	-8	6	13	-1
COc1ccc(NS(=O)(=O)c2cccc(C(=O)N3CCCC(C)C3)c2)cc1 (stereo not given)	-18	.	-1	10	2	19*
CS(=O)(=O)N1C[C@H](O)COC[C@@H]2O[C@@H](CC(=O)NCc3ccc(-c4ccccc4)cc3)CC[C@H]21	16	0	78*	7	.	.
O=C(C[C@H]1CC[C@H]2[C@@H](COC[C@@H](O)CN2S(=O)(=O)c2cccc(Cl)c2)O1)Nc1ccc(-c2ccccc2)cc1	-3	0	2	8	.	19*

The listing picks up, repeating the 2 entries before the break.
SMILES	AF4-AF9 inh	E-selectin induc	RAD52 anneal inh	RAD54 branch	Yeast UUG start	SIRT5 inh
COc1ccc(NS(=O)(=O)c2ccc3c(c2)CCCN3C(C)=O)cc1	-24	121*	-1	-12	-9	-5
COc1ccc(N2CCN(CCCNC(=S)Nc3c(C)cccc3C)CC2)cc1	43*	0	-7	9	-29	-10
Cc1nn(CCO)c2ncc(C(=O)c3cc(Cl)ccc3O)cc12	1	0	-19	0	-3	3
COc1ccc(O)c(C(=O)c2cnc3c(c2)c(C)nn3CCO)c1	-4	.	-15	-5	-10	19*
O=C(CCC(=O)Nc1cccc(Cl)c1)N/N=C/c1cc([N+](=O)[O-])ccc1O	1	.	2	.	.	15*
O=C(CCCC(=O)Nc1cccc(Br)c1)N/N=C/c1cc([N+](=O)[O-])ccc1O	1	-1	-7	-1	-4	0
Cc1ccc(F)c([C@H]2C3C=CCC(c4ccccc4)C3C(=O)N2Cc2ccccc2)c1 (stereo not given in full)	50*	0	-16	-1	-17	.
